# Experimental data from patent US20090253629A1 (priority 2008, published 2009).
# Key:
# in vivo = test: in vivo; parameters: species or system New Zealand white rabbits; conditions: infected rabbits; for Cmax: male, New Zealand white, rabbit, in vivo, iv, read-out: Peak concentration in serum
# Method: Male New Zealand white rabbits weighing approx. 2500 g was used for the experiments. The rabbits arrived at the facilities 1-2 weeks prior to the experiment to allow for adaptation. They were kept in single cages covered with hay and offered food and water with no restrictions. Veterinarian expertise was available at the laboratory, and the experimental design was approved by the local animal legislation committee.
# The rabbit was weighed and anaesthetized with dormicum 0.5 ml/kg (midazolam 5 mg/ml) s.c. and after 10 minutes with hypnorm 0.35 ml/kg (fentanylcitrat+fluanison) i.m.
# The ears, scalp and neck of the rabbit were shaved and the skin disinfected. An incision measuring approx. 2 cm was made on the forehead of the rabbit and the scalp was exposed by blunt dissection. 4 bore holes were made demarcating a square and 4 screws were screwed up at right angles to the surface (2.5 to 3 turns). An acrylic helmet, embedding a turnbuckle, was moulded from dental casting material directly onto the scalp of the rabbit and the helmet was cooled under running water. The rabbit was put back into its cage with free access to food and water to rest for 8-10 hours until the time of bacterial inoculation or start of pharmacokinetic treatment study on uninfected rabbits. Analgesia with buprenorfin, 0.1 mg/kg, was given.
# In the evening, at 10 p.m., the day before the treatment experiments with Meningicin, the rabbit was re-anaesthetized with hypnorm-dormicum. The head of the rabbit was immobilised in a stereotactic frame and a spinal canula was introduced in cisterna magna for the inoculation of 1×10^5 CFU pneumococci. After the bacterial inoculation, the rabbit was put back into its cage with access to food and water for another 8 hours.
# The rabbit was re-anaesthetized with urethan 3.5 ml/kg ([…] 50%, 1.75 g/kg) s.c. at 7.30 a.m. A venous catheter was applied in the left ear-vein and Mebumal approx. 0.5-1 ml (Pentobarbital 50 mg/ml) i.v. was infused slowly until the rabbit was asleep and deeply anaesthetized. A three-way tap was connected to the venous catheter and syringes containing pentobarbital for supplemental anaesthetics and isotonic NaCl and heparin 1 Ul/ml for flushing were connected to the tap. Rabbits were observed every half hour. When the need for supplemental anaesthesia arose, additional 0.2 ml Mebumal (Pentobarbital 50 mg/ml) was given. During the experiment observations and anaesthetics were recorded in the scheme of the laboratory animal-department and in the book of the Laboratory Animal Inspection.
# An arterial canula was applied in the artery of the right ear and used for blood-sampling throughout the experiment. A bolt was fastened to the turnbuckle embedded in the acrylic helmet, and the rabbit's head was fixed in a stereotactic frame. The rabbit remained fixed throughout the experiment.
# Cisterna magna was punctured with a spinal-canula, fastened to the stereotactic frame. The canula was left in place throughout the experiment and used for CSF-sampling.
# At the time-point relevant to the conducted experiment 1 ml of blood and 0.3 ml of CSF was aspirated from the arterial canula/the spinal needle and transferred to EDTA-tubes/Eppendorf-tubes. After the last sampling, the experiment was terminated and the rabbits were killed with an overdose of Mebumal (Pentobarbital 200 mg/ml).
# CSF and plasma concentrations of Meningicin were measured by use of HPLC. When evaluating bacterial concentrations in inocula and samples, serial 10-fold dilutions (requiring 20 microliters of test-material) plated as spots of 50 microliters on blood-agar plates were used for calculations of CFU/ml.
# Meningicin (dosages of 20, 40 and 80 mg/kg respectively) was administered through the three-way tap as an intravenous bolus infusion over 10 minutes at the beginning of the experiment. […]
# [1] = system: Streptococcus pneumoniae (1395); test: Minimum inhibitory concentration (MIC) against Streptococcus pneumoniae (1395); assay type: cell-based; conditions: penicillin-resistant serotype 9V
# Source text: An Isolate of a penicillin-resistant serotype 9V Streptococcus pneumoniae (1395), originally isolated from the CSF of a person with meningitis, was used in the meningitis model. This strain was formerly used for evaluating the effectiveness of treatment of meningitis with Moxifloxacin (see Ostergaard et al., 1998, “Evaluation of moxifloxacin, a new 8-methoxyquinolone, for treatment of meningitis caused by a penicillin-resistant pneumococcus in rabbits”, Antimicrob Agents Chemother 42(7): 1706-1712).
# The synthetic defensin used in the experiment is a polypeptide having the amino acid sequence shown in SEQ ID NO: 1.
# [2] = system: penicillin-resistant serotype 9V Streptococcus pneumoniae (1395); conditions: for bacterial burden in the cerebrospinal fluid: individual rabbits
# [3] = 20 mg/kg i.v. bolus infusion over 10 minutes
# [4] = 40 mg/kg i.v. bolus infusion over 10 minutes
# [5] = 80 mg/kg i.v. bolus infusion over 10 minutes
# [6] = penicillin-resistant serotype 9V (1395, rabbit, in vivo, 0 h)
smiles,measurement,setting,value
CC[C@H](C)[C@@H]1NC(=O)[C@H](CO)NC(=O)[C@H](CCCCN)NC(=O)[C@@H]2CSSC[C@@H](C(=O)N[C@@H](Cc3ccc(O)cc3)C(=O)O)NC(=O)[C@H](CCCCN)NC(=O)[C@@H]3CSSC[C@H](NC(=O)[C@H](CCCNC(=N)N)NC(=O)[C@H](CC(C)C)NC(=O)[C@H](CC(=O)O)NC(=O)[C@H](CC(=O)O)NC(=O)[C@H](CCC(=O)O)NC(=O)[C@H](CC(N)=O)NC(=O)[C@H](Cc4c[nH]c5ccccc45)NC(=O)[C@@H]4CCCN4C(=O)CNC(=O)[C@H](CC(N)=O)NC(=O)[C@@H](NC(=O)CNC(=O)[C@H](Cc4ccccc4)NC(=O)CN)CSSC[C@H](NC(=O)[C@H](Cc4ccc(O)cc4)NC(=O)CNC(=O)CNC(=O)[C@H](CCCCN)NC(=O)[C@H](Cc4ccc(O)cc4)NC(=O)CNC(=O)[C@H](CCCCN)NC1=O)C(=O)N[C@@H](C)C(=O)N[C@@H](CCCCN)C(=O)NCC(=O)NCC(=O)N[C@@H](Cc1ccccc1)C(=O)N[C@@H](C(C)C)C(=O)N3)C(=O)N[C@@H](Cc1c[nH]cn1)C(=O)N[C@@H](CC(N)=O)C(=O)N[C@@H](Cc1c[nH]cn1)C(=O)N2 [Meningicin],Meningicin penetration of the blood-brain barrier,in vivo; 20 mg/kg i.v.,21%
same,AUC CSF,in vivo; [3],"8,557 micrograms/l"
same,AUC serum,in vivo; [3],"40,162 micrograms/l"
same,Peak concentration in CSF,in vivo; [3],"2,001 micrograms/l"
same,Meningicin penetration of the blood-brain barrier,in vivo; 40 mg/kg i.v.,49%
same,AUC CSF,in vivo; [4],"47,902 micrograms/l"
same,AUC serum,in vivo; [4],"97,040 micrograms/l"
same,Peak concentration in CSF,in vivo; [4],"10,230 micrograms/l"
same,Meningicin penetration of the blood-brain barrier,in vivo; 80 mg/kg i.v.,16%
same,AUC CSF,in vivo; [5],"30,476 micrograms/l"
same,AUC serum,in vivo; [5],"192,990 micrograms/l"
same,Peak concentration in CSF,in vivo; [5],"8,040 micrograms/l"
same,Cmax,in vivo; [3],31.4 µg/mL
same,Cmax,in vivo; [4],113 µg/mL
same,Cmax,in vivo; [5],376 µg/mL
same,minimium inhibitory concentration (MIC),[1],0.25 micrograms/ml
same,reduction in bacterial burden in the cerebrospinal fluid (Δ log CFU),[2]; [6],0.00 Δ log CFU
same,"reduction in bacterial burden in the cerebrospinal fluid (Δ log CFU), Average",[2]; [6],0.00 Δ log CFU
same,"reduction in bacterial burden in the cerebrospinal fluid (Δ log CFU), Average","[2]; penicillin-resistant serotype 9V (1395, rabbit, in vivo, 3 h)",−2.97 Δ log CFU
same,"reduction in bacterial burden in the cerebrospinal fluid (Δ log CFU), Average","[2]; penicillin-resistant serotype 9V (1395, rabbit, in vivo, 5 h)",−4.22 Δ log CFU
same,"reduction in bacterial burden in the cerebrospinal fluid (Δ log CFU), Average","[2]; penicillin-resistant serotype 9V (1395, rabbit, in vivo, 10 h)",−4.86 Δ log CFU
same,efficacy in treating meningitis,"[2]; rabbit meningitis model, result in words",very high efficacy
same,efficacy compared with Ceftriaxone,"[2]; rabbit, in vivo",at least as high as the efficacy of Ceftriaxone
same,bacterial burden in the cerebrospinal fluid,"[2]; time 3 hours, Meningicin 40 mg/kg at 0 h + 20 mg/kg after 5 h","1,500 CFU/ml and 2,500 CFU/ml and 1,250 CFU/ml"
same,bacterial burden in the cerebrospinal fluid,"[2]; time 10 hours, Meningicin 40 mg/kg at 0 h + 20 mg/kg after 5 h",0.1 CFU/ml
same,bacterial burden in the cerebrospinal fluid,"[2]; time −10 hours (before treatment), Meningicin group","240,000 CFU/ml"

# Values joined by “and” are separate entries in the source; they are usually repeats but may differ in a detail not shown here. Equal values may be shown once. Read-outs that look alike come from different tables or passages of the source.
